Measured values: PMC8308721 (Pharmaceutics, 2021)

Conditions: 130 mg/kg vs 10 mg/kg

Structure (SMILES): CN1CC[C@]23c4c5ccc(O)c4O[C@H]2[C@@H](O)C=C[C@H]3[C@H]1C5 [morphine]
- maximum tolerated dose relative to therapeutic dose (10 mg/kg): 13 fold
